The target in one data set is T1, human serum albumin HSA (Homo sapiens, UniProt P02768).
T1 construct: 4 × 10 mm
Description: HPLC on immobilized human serum albumin column (HPLC-HSA). The class given is in vitro ADME. The conditions noted are these: logarithm of retention factor, mobile phase pH 7.4.

The chains behind the UniProt entries cited, without tags or fusion partners. Residues count along the entry.
UniProt P02768, 25-609: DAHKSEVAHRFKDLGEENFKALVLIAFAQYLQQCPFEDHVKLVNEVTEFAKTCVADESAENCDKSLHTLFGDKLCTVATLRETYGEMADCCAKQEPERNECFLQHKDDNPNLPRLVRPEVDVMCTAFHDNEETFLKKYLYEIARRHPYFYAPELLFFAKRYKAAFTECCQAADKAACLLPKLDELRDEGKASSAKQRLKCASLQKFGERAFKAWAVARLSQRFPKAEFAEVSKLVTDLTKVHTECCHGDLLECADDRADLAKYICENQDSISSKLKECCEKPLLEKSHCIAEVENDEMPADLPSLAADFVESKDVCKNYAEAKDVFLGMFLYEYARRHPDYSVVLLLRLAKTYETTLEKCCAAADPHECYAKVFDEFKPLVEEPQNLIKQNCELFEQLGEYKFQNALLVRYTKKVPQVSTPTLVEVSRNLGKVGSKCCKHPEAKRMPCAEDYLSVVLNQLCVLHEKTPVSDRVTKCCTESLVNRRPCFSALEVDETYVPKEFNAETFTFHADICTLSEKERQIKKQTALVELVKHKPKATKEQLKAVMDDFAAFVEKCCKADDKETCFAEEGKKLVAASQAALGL
UniProt P02769, 25-607: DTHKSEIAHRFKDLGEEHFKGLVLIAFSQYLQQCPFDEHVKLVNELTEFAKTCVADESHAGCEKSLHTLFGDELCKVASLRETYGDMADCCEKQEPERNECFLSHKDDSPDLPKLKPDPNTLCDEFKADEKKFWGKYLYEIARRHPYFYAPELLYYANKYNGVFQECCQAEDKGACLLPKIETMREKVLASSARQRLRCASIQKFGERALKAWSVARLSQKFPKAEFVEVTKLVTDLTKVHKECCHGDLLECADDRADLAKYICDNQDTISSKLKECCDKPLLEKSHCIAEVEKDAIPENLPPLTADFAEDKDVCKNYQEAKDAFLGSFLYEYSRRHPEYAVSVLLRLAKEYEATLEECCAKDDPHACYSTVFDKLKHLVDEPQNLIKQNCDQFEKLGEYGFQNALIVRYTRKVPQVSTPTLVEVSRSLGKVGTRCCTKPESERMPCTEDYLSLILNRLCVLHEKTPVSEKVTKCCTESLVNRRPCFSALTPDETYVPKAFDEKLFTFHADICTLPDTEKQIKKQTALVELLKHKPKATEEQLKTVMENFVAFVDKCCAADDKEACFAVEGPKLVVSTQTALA

Data set [1] has as its target T2, bovine serum albumin BSA (Bos taurus, UniProt P02769).
T2 construct: purchased Sigma Aldrich
Description: NP TLC on silica gel plates impregnated with bovine serum albumin. The conditions noted are these: for NP: Rf value from NP plate impregnated with 2 mg/mL BSA solution, mobile phase pH 7.4. The class given is in vitro ADME.

Details of data set [2]: method as in earlier work. The conditions noted are these: code describing the acid-base properties; source Chembl; cited from earlier work.
Data set [3] addresses T2, bovine serum albumin BSA. The data set can be described thus: RP TLC on silanized RP-2 plates impregnated with bovine serum albumin. It is filed as in vitro ADME. The conditions noted are these: Rf value from RP plate impregnated with 2 mg/mL BSA solution; mobile phase pH 7.4.
Throughout, for a/b/n code: key: (-1) - acids; (0) - neutrals; (1) - bases.

On to `CC(C)(C)NC[C@H](O)COc1nsnc1N1CCOCC1` [timolol], for which the “log kHSA” value at human serum albumin HSA is recorded as -0.88.
Compound `Nc1cc(N2CCCCC2)nc(N)[n+]1[O-]` [minoxidil] returned an NP/C on bovine serum albumin BSA [1] (Rf from BSA-modified NP plate / Rf from clear one (control)) of 0.98. Further, the NP on bovine serum albumin BSA [1] amounted to 0.42. Also, the a/b/n code in data set [2] is 0.
As to `CNCC[C@H](Oc1cccc2ccccc12)c1cccs1` [duloxetine], the RP at bovine serum albumin BSA [3] is 0.53. The compound also showed an NP at bovine serum albumin BSA [1] of 0.33.
In the case of `COc1cccc(C2(O)CCCCC2CN(C)C)c1` (stereo not shown) [tramadol], the RP at bovine serum albumin BSA [3] is on record as 0.64.

The record behind these values is article PMC9913351, “Computational Approach to Drug Penetration across the Blood-Brain and Blood-Milk Barrier Using Chromatographic Descriptors” (Cells, 2023).
